Measured values taken from patent US9120791B2, “Indolizine compounds, a process for their preparation and pharmaceutical compositions containing them” (LES LABORATOIRES SERVIER, priority 2012, dated 2015).
Counter-ions that a name gives are not always drawn.

Sequences of proteins named here, by UniProt entry; tags and fusion partners are left off.
UniProt P10415, whole entry: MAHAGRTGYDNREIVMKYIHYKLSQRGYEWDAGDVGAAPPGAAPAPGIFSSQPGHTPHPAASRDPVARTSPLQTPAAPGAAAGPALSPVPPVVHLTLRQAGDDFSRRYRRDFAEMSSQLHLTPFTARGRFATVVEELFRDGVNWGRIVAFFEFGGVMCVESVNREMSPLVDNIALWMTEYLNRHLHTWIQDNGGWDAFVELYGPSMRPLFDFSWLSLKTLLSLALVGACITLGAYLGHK

Target: Bcl-2 protein (Homo sapiens (Human), UniProt P10415)
Test: Inhibition of Bcl-2 by the fluorescence polarisation technique
Assay type: binding
Details: fluorescence polarisation test; concentration that inhibits fluorescence polarisation by 50%; read-out: IC50 (nM) Bcl-2 FP
Experimental: The fluorescence polarisation tests were carried out on microplates (384 wells). […] After incubation for 2 hours, the fluorescence polarisation is measured.

| Compound | IC50 [nM] |
| --- | --- |
| O=C(c1cc(-c2cc3c(cc2C(=O)N2Cc4ccccc4C[C@H]2CN2CCOCC2)OCO3)n2c1CCCC2)N(c1ccccc1)c1ccc(O)cc1 [Example 1, N-(4-Hydroxyphenyl)-3-{6-[((3S)-3-(4-morpholinylmethyl)-3,4-dihydro-2(1H)-isoquinolinyl)carbonyl]-1,3-benzdioxol-5-yl}-N-phenyl-5,6,7,8-tetrahydro-1-indolizine carboxamide hydrochloride] | 18 |
| Cn1ccc2cc(N(C(=O)c3cc(-c4cc5c(cc4C(=O)N4Cc6ccccc6C[C@H]4CN4CCOCC4)OCO5)n4c3CCCC4)c3ccc(O)cc3)ccc21 [Example 10, N-[4-(Hydroxy)phenyl]-N-(1-methyl-1H-indol-5-yl)-3-{6-[((3S)-3-(4-morpholinylmethyl)-3,4-dihydro-2(1H)-isoquinolinyl)carbonyl]-1,3-benzodioxol-5-yl}-5,6,7,8-tetrahydro-1-indolizine carboxamide hydrochloride] | 18 |
| CCOc1ccc(C(=O)N2Cc3ccccc3C[C@H]2CN2CCOCC2)c(-c2cc(C(=O)N(c3ccc(O)cc3)c3ccc4c(ccn4C)c3)c3n2CCCC3)c1 [Example 36, 3-{5-Ethoxy-2-[((3S)-3-(4-morpholinylmethyl)-3,4-dihydro-2(1H)-isoquinolinyl)carbonyl]phenyl}-N-(4-hydroxyphenyl)-N-(1-methyl-H-indol-5-yl)-5,6,7,8-tetrahydro-1-indolizine carboxamide hydrochloride] | 43 |
| Cl.[2H]C1([2H])Oc2cc(C(=O)N3Cc4ccccc4C[C@H]3CN3CCOCC3)c(-c3cc(C(=O)N(c4ccc(O)cc4)c4ccc5c(ccn5C)c4)c4n3CCCC4)cc2O1 [Example 37, N-(4-Hydroxyphenyl)-N-(1-methyl-1H-indol-5-yl)-3-{2,2-dideuterio-6-[((3S)-3-(4-morpholinylmethyl)-3,4-dihydro-2(1H)-isoquinolinyl)carbonyl]-1,3-benzodioxol-5-yl}-5,6,7,8-tetrahydro-1-indolizine carboxamide hydrochloride] | 19 |
| Cl.[2H]C1([2H])Oc2cc(C(=O)N3Cc4ccccc4C[C@H]3CN3CCOCC3)c(-c3cc(C(=O)N(c4ccccc4)c4ccc(O)cc4)c4n3CCCC4)cc2O1 [Example 38, N-(4-Hydroxyphenyl)-3-{2,2-dideuterio-6-[((3S)-3-(4-morpholinylmethyl)-3,4-dihydro-2(1H)-isoquinolinyl)carbonyl]-1,3-benzodioxol-5-yl}-N-phenyl-5,6,7,8-tetrahydro-1-indolizine carboxamide hydrochloride] | 21 |
| Cn1ccc2cc(N(C(=O)c3cc(-c4cc5c(cc4C(=O)N4Cc6ccccc6C[C@H]4CN4CCOCC4)OCO5)n4c3CCCCC4)c3ccc(O)cc3)ccc21 [Example 84, hydrochloride] | 18 |
